Consider one molecule from patent US20060270634A1, “Acetal phosphate-derived LPA mimics, PPARgamma activators, and autotaxin inhibitors” (priority 2005, published 2006).

A word on the Ki: it is the equilibrium dissociation constant of an inhibitor or competing ligand from its target. Broadly, the IC50 is the point on the concentration scale where inhibition reaches its midpoint.

The target in this test is T1, LPA3 (Homo sapiens, UniProt Q9UBY5).
T1 sequence (Q9UBY5 1-353): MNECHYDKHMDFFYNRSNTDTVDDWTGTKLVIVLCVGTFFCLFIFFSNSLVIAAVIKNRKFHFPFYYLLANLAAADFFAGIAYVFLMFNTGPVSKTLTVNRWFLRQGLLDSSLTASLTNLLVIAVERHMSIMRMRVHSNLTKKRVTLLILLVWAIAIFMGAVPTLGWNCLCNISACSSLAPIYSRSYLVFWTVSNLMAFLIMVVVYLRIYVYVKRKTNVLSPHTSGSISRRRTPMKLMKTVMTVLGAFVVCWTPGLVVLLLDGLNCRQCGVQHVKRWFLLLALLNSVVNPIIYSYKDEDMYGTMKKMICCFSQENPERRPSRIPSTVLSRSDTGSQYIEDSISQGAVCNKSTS
Kind of test: Ca2+ transients in RH7777 cells expressing LPA3 (agonist / inhibition of LPA response). The settings on record: Table 5.

With `CCCCCCCC(=O)OC[C@@H](COP(=O)(O)O)OC(=O)CCCCCCC` [Cpd 7a, (2S)-PA 8:0], the inhibition constant Ki (read-out: LPA3 (Ki)) was determined as 119 nM. In addition, for the setting “read-out: LPA3 IC50”, the IC50 was determined as 207 nM.
